Patent publication US7655396B1, “Methods for detecting receptor modulator activity” (Allergan, Inc., priority 2006, dated 2010)
Entries after “also recorded” stand apart in the source; their conditions may differ.

By UniProt entry, the sequences of proteins in these tests, tags left out.
UniProt P30545, whole entry: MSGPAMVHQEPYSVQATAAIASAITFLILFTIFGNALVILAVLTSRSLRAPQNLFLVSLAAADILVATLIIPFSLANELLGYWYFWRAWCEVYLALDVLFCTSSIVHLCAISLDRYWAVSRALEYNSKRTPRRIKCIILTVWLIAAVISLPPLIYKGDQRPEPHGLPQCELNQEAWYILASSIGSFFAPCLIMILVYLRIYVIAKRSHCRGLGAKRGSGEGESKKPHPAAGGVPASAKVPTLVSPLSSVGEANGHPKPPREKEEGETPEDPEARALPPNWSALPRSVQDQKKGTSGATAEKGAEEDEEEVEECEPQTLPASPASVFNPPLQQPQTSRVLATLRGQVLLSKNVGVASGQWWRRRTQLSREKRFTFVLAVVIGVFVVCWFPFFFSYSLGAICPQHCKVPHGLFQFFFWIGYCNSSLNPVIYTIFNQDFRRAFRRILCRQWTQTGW

Target: T1, mouse alpha 2B receptor (m α2B) (Mus musculus, UniProt P30545)
T1 construct: expressed in transfected cells
Test: FLIPR calcium flux assay in HEK 293 m α2B/Gqi5 cells (Fluo-4 dye)
Assay type: cell-based
Details: for activity (ratio of peak height divided by background fluorescence): FIGS. 3A-3C, 1 to 10^4 nM, FLIPR buffer without HEPES, commercial screening company
Text: This example describes the methodology used in assaying compounds for the ability to modulate the α2B receptor in a high throughput assay format in which the “readout” is the measurement of a change in intracellular calcium flux due to the use of the “promiscuous” Gqi5 hybrid G-protein, linking the α2B receptor (normally coupled to the adenylyl cyclase pathway) to the PLC pathway. Changes in intracellular calcium flux are monitored using a dye that becomes fluorescent when it binds free Ca^++ ion.
HEK 293 cells are stably co-transfected with two plasmids, the first encoding the mouse alpha 2B receptor (m α2B), and the second encoding the hybrid Gqi5 protein. […] The nucleotide sequence encoding the human Gqi5 protein is contained in the reference Aiyar et al., Human AT1 receptor is a single copy gene: characterization in a stable cell line. Mol. Cell. […] These references are hereby all incorporated by reference herein. […]
Each well of cells (in a 96 well microtiter dish) is assayed for activity in the FLIPR assay using the Fluo-4® calcium indicator dye to detect calcium flux. The structure of this dye, which can be purchased from Molecular Probes, Inc., is as follows:
The cells are loaded with this dye using the manufacturer's recommendations, and washed 3× with FLIPR Buffer. Assays are conducted at room temperature (unless otherwise indicated in the following examples). […] Only cells releasing Ca++ into the cytosol of the cells (thereby permitting Ca++ binding to the Fluo-4 dye) will have increased fluorescent emission at 520 nm.
Images of the illuminated cells are captured with a charge-coupled device (CCD) camera; CCD technology is adapted for producing high-resolution images in conditions of ultra low light. Images are collected at the rate of 60 images/minute (1 image per second) in each well. After 10 seconds, 50 μl of the test compound is pipetted into the well, and further images are collected at 1 second intervals for an additional 60 seconds, then at 15 second intervals for 4 minutes. Test compounds are prepared from 10^-2 M stocks in DMSO. Compounds are diluted in the FLIPR buffer to a final DMSO concentration of about 1%.
All images are stored on a computer hard drive for later retrieval and analysis.

[1] = FIG. 1, assay carried out at 35° C., 96 well
[2] = FIG. 2, second experiment, 35° C., 96 well
[3] = FIG. 2, second experiment, 35° C., norepinephrine standard

Row | Compound | EC50 (32° C., FIG. 4B) [nM] | relative efficacy (32° C., FIG. 4B) [%] | EC50 (35° C., FIG. 4C) [nM] | relative efficacy (35° C., FIG. 4C) [%] | EC50 (37° C., FIG. 4D) [nM] | relative efficacy (37° C., FIG. 4D) [%] | EC50 [1] [nM] | relative efficacy compared to a norepinephrine standard [1] [%] | EC50 [2] [nM] | relative efficacy [3] [%] | activity (ratio of peak height divided by background fluorescence) (room temperature, 384 well) | EC50 (Room Temp., FIG. 4A) [nM] | relative efficacy (Room Temp., FIG. 4A) [%] | maximum ratio over background (FIG. 3C, room temperature, 384 well)
1 | Clc1cccc(Cl)c1N=C1NCCN1 [Clonidine] | 46 | 25 | 74 | 40 | 13 | 32 | 24 | 29 | 33 | 26 | shows no activity; also recorded: do not show activity to any significant degree | 120 | 5 | –
2 | prazosin | – | – | – | – | – | – | – | – | – | – | only norepinephrine shows activity above background | – | – | –
3 | Brimonidine | 36 | 52 | 38 | 63 | 16 | 53 | 43 | 59 | 55 | 70 | – | 78 | 63 | about 2.5
